Data: ChEMBL document CHEMBL1641540, “Peripheral site ligand-oxime conjugates: A novel concept towards reactivation of nerve agent-inhibited human acetylcholinesterase” (2011)

Chains of the proteins cited; added tags and fusions are not shown. Lines headed by an entry give the natural chain unless they say otherwise; changes in a name come on top.
UniProt P22303: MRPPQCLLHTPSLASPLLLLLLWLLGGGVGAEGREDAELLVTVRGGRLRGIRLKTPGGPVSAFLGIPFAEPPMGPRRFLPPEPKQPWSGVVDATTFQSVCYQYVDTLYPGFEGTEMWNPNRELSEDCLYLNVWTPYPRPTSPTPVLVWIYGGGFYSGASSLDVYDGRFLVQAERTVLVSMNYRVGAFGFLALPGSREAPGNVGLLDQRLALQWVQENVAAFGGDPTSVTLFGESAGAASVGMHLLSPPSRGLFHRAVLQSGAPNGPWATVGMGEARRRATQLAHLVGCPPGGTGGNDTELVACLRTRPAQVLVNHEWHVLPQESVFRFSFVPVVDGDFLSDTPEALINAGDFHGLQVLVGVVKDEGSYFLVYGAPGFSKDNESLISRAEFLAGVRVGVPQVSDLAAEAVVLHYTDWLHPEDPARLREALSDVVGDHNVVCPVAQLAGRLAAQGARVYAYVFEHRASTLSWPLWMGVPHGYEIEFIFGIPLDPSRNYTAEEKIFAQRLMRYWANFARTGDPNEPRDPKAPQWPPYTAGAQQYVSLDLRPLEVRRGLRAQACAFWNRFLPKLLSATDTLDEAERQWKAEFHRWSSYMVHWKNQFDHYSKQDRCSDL

Key:
[1] = target: Acetylcholinesterase (Homo sapiens) (UniProt P22303); experiment: Reactivation of tabun-inhibited human AChE assessed as active enzyme at 10^-5 M after 30 mins by Ellman method; set-up: scale not given: the % may be the effect or the level left
[2] = target: Acetylcholinesterase (Homo sapiens) (UniProt P22303); experiment: Reactivation of nerve agent VX-inhibited human AChE assessed as active enzyme at 10^-5 M after 30 mins by Ellman method
[3] = target: Acetylcholinesterase (Homo sapiens) (UniProt P22303); experiment: Reactivation of sarin-inhibited human AChE assessed as active enzyme at 10^-5 M after 30 mins by Ellman method; set-up: scale not given: the % may be the effect or the level left

Row | SMILES | Activity [1] [%] | Activity [2] | Activity [3] [%]
1 | O/N=C/c1cc[n+](CCOCCN2CCC(OC(c3ccccc3)c3ccccc3)CC2)cc1 | < 5 | Active | 22
2 | O/N=C/c1cc[n+](CCOCCCl)cc1 | < 5 | – | –
3 | O/N=C/c1cc[n+](CCOCCOCCOCCCl)cc1 | < 5 | – | –
4 | O/N=C/c1cc[n+](CCOCCOCCCl)cc1 | < 5 | – | –
5 | O/N=C/c1cc[n+](CCOCCOCCN2CCC(OC(c3ccccc3)c3ccccc3)CC2)cc1 | < 5 | Active | 23
6 | O/N=C/c1cc[n+](CCOCCOCCOCCN2CCC(OC(c3ccccc3)c3ccccc3)CC2)cc1 | < 5 | Active | 36

Calls of active or inactive are those of the source. No cut-off for these calls is given here.
